Here are results for 1 compound from US20120046329A1, “MODULATORS OF NOD1 AND NOD2 SIGNALING, METHODS OF IDENTIFYING MODULATORS OF NOD1 AND NOD2 SIGNALING, AND USES THEREOF” (Sanford-Burnham Medical Research Institute, priority 2010, published 2012).

The target in data set [1] is T1, NOD1 (Homo sapiens, UniProt Q9Y239).
T1 sequence (Q9Y239 1-953): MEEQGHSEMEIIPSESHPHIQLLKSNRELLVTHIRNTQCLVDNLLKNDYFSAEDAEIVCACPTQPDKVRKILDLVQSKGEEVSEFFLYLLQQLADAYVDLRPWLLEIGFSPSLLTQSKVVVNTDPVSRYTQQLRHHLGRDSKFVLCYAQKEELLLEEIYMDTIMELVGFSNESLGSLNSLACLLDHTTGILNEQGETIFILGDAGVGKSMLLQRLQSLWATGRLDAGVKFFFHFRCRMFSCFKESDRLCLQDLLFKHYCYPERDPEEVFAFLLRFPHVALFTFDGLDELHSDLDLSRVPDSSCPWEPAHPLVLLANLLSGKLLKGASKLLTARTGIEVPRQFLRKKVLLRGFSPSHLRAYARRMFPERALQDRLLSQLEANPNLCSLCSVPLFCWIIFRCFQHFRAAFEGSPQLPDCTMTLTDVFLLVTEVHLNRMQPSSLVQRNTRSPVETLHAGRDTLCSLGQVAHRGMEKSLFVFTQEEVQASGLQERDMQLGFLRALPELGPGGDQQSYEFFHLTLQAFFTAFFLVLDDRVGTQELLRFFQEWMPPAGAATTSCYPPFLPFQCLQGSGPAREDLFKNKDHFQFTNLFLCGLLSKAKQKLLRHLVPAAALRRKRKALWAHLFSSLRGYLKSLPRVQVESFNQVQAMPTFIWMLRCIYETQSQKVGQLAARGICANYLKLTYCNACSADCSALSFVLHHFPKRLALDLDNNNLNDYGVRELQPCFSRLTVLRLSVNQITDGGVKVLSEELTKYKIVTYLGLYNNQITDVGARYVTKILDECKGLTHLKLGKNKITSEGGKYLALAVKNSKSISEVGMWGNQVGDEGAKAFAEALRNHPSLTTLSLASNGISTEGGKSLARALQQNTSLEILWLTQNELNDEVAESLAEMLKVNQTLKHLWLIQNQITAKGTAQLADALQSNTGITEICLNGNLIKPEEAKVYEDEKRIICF
The experiment in a line: 1D 1H-NMR ligand binding to recombinant NOD1 protein. More on the design: made in house. Particulars: 50 μM compound, 5 μM protein.

The target in data set [2] is T1, NOD1. As to the kind of experiment: NF-κB luciferase in 697 pre-B leukemia cells, γ-tri-DAP. The settings on record: 697 cells, 10 μM.
Data set [3] deals with T1, NOD1. The experiment in a line: γ-tri-DAP-induced IL-8 secretion ELISA in MCF-7/NOD1 cells. The settings on record: MCF-7 cells, listed as probe.
Data set [4] deals with T1, NOD1. As to the kind of experiment: Subcellular fractionation of MCF-7 cells expressing tagged NOD1. The settings on record: MCF-7, 5 μM, 24 hr.
Data set [5] concerns the target T1, NOD1. The experiment in a line: Primary monocyte-derived dendritic cells activated with γ-tri-DAP. The settings on record: 15 μM.
Data set [6] has as its target T1, NOD1. As to the kind of experiment: NF-κB SEAP reporter in PMA-differentiated THP.1 macrophages, γ-tri-DAP. The settings on record: 5 μM, 24 h. The data set is classed as cell-based. More on the design: endogenous in cells; host or cells: HEK293T with integrated NF-κB-luciferase or ISRE-luciferase reporter.
The target of data set [7] is T1, NOD1. As to the kind of experiment: ISRE-driven luciferase reporter in HEK293T, γ-tri-DAP. It counts as cell-based. Particulars: 5 μM. More on the design: endogenous in cells; host or cells: HEK293T with integrated NF-κB-luciferase or ISRE-luciferase reporter. (In general: In a reporter assay the amount or activity of a reporter protein is the signal.)
The target of data set [8] is T1, NOD1. The experiment in a line: Fluorescence polarization assay, FITC-ATP binding to recombinant NOD1. More on the design: endogenous in cells; host or cells: HEK293T with integrated NF-κB-luciferase or ISRE-luciferase reporter. The settings on record: 10 nM FITC-ATP.

With `Cc1ccc(S(=O)(=O)n2c(N)nc3ccccc32)cc1` [Compound 1], on NOD1 [1], the “Binding to NOD1 protein by 1D 1H-NMR signal suppression” value is listed as “direct interaction”. In addition, the “Effect on NF-κB activity induced by γ-tri-DAP” value at NOD1 [2] is recorded as “is inhibited”. Also, the “Inhibition of NOD1 (γ-tri-DAP) dependent IL-8 secretion (in words)” value at NOD1 [3] is listed as “Dose dependent inhibition”. On NOD1 [4], the “Membrane localization of RIP2” value is “reduced” and the “NOD1 protein in the membrane fraction” value was “induced enrichment”. On NOD1 [5], the “Cytotoxicity in dendritic cells” value is “without causing cytoxicity”. On NOD1 [5] (dendritic cells, 4 hr, mRNA), the “Expression of IL-1β, IL-6 and TNF-α elicited by γ-tri-DAP” value is on record as “inhibited”. Besides, the “Cell surface expression of CD83, CD86 and HLA-DR elicited by γ-tri-DAP” value on NOD1 [5] (dendritic cells, 24 hr) is recorded as “reduced”. At NOD1 [6], the “Effect on NF-κB-inducible SEAP activity induced by γ-tri-DAP” value is on record as “inhibition by compound 1 was highly reproducible”. The “Effect on ISRE-driven reporter gene activity induced by γ-tri-DAP” value on NOD1 [7] is given as “suppressed”. For the same compound, the “Interference with ATP binding to recombinant NOD1 protein” value on NOD1 [8] is “did not interfere”.
